Assay results published in paper PMC8958505, “Discovery of Potential Neuroprotective Agents against Paclitaxel-Induced Peripheral Neuropathy” (Journal of Medicinal Chemistry, 2022).
Where a name gives a salt, the structure may show the parent alone. Read-outs that look alike come from different tables or passages of the source.

Experiments:
[1] = test system: Glutamate, NMDA, Phencyclidine; experiment: LeadProfilingScreen: Glutamate, NMDA, Phencyclidine; type: binding, rat; conditions: 10 μM
Thyroid Hormone = experiment: LeadProfilingScreen: Thyroid Hormone; type: binding, rat; conditions: 10 μM
[2] = molecular target: Platelet Activating Factor (PAF) (Homo sapiens, UniProt P25105); experiment: LeadProfilingScreen: Platelet Activating Factor (PAF); type: binding
Muscarinic M3 = Muscarinic M3 (Homo sapiens, UniProt P20309); experiment: LeadProfilingScreen: Muscarinic M3; type: binding
Phorbol Ester = experiment: LeadProfilingScreen: Phorbol Ester; type: binding, mouse; conditions: 10 μM
Neuropeptide Y Y2 = Neuropeptide Y Y2 (Homo sapiens, UniProt P49146); experiment: LeadProfilingScreen: Neuropeptide Y Y2; type: binding
[3] = test system: mouse primary DRG neurons; experiment: Neurite outgrowth assay of DRG neurons (image-based HCS) against paclitaxel-induced neurotoxicity; type: cell-based; conditions: for activation at 1 µM: Mus musculus, DRG neuron
Summary of the method: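 Mouse primary DRG neurons exposed to compound with 50 nM paclitaxel, then fixed and stained for β III tubulin (neurites), NeuN and Hoechst.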

[4] = test system: paclitaxel-induced neuropathy in C57BL/6 mice; experiment: Tail immersion test (thermal sensation) in paclitaxel-induced neuropathy; type: in vivo, mouse
Protocol: Three behavioral models of paclitaxel-induced neuropathy were used to verify the neuroprotective effect of CN016. Namely, thermal and mechanical nociceptive reactions described below were evaluated by tail immersion and von Frey filament tests, respectively, and motor coordination was assessed with the rotarod performance test (Supporting Information, Figure S1A,B). To mimic the clinical therapeutic regimen, CN016 (5, 10 and 20 mg/kg) was administrated to 7-week-old female C57BL/6 mice by intraperitoneal injection (IP) 1 h prior to each injection of paclitaxel (4.5 mg/kg) on four alternate days (days 1, 3, 5, and 7). Each test’s basal level was recorded before treatment, and additional sessions of behavior tests were performed weekly for five weeks (Figure 4A).
The baseline of every neurological behavior test was measured in 6-week-old C57BL/6J female mice prior to treatment. […] Mechanical hyperalgesia was evaluated by using von Frey filament (#2390, IITC Inc., USA), thermal sensitivity was determined by the tail immersion assay (water temperature: 48–49 °C), and motor coordination was assessed by rotarod (#7750, Ugo Basile Biological Research Apparatus, Italy). After the first drug implantation, the body weight was recorded every 6 days throughout the entire experiment.

Muscarinic M1 = Muscarinic M1 (Homo sapiens, UniProt P11229); experiment: LeadProfilingScreen: Muscarinic M1; type: binding
[5] = test system: macrophages and microglia in DRG tissues; experiment: Immunofluorescence of macrophages and microglia in DRG tissues; type: in vivo, mouse; conditions: day 7
Protocol: DRG tissues were isolated on day 7 after first paclitaxel injection. The tissues were fixed in 4% paraformaldehyde at 4 °C overnight and subsequently placed in 30% sucrose for sample dehydration. During the frozen section procedure, the tissues were embedded in OCT (EMS; #14120) and sectioned into 20 μm thick slices. The DRG tissue sections were permeabilized with 0.1% Triton X-100 in PBS for 1 h and then blocked with CAS-Block solution (#008120; Thermo Fisher, USA) at room temperature for another 1 h. DRG tissue sections were stained with primary antibody against CD68 (1:100 dilution; Novus), NOS2 (1:100 dilution; Santa Cruz), Arginase-1 (1:100 dilution; Santa Cruz), and Iba-1 (1:100 dilution; Santa Cruz) at 4 °C overnight. Afterward, the samples were washed with PBS and stained with secondary antibodies (Alexa-488, 594, 1:200 dilution; Invitrogen) and Hoechst 33342 (4 μg/mL; Invitrogen) at room temperature for 1 h. A 60× objective by an Olympus FV3000 confocal microscope was used to acquire immunofluorescence images.

[6] = molecular target: Nicotinic Acetylcholine α3β4 (Homo sapiens, UniProt P30926+P32297); experiment: LeadProfilingScreen: Nicotinic Acetylcholine α3β4; type: binding

## O=P(O)(O)CCN1CCC(Nc2cc(N3CCOCC3)nc(NCc3cn(CCCO)nn3)n2)CC1 [CN016, {2-[4-(2-{[1-(3-Hydroxy-propyl)-1H-[1,2,3]triazol-4-ylmethyl]-amino}-6-morpholin-4-yl-pyrimidin-4-ylamino)-piperidin-1-yl]-ethyl}-phosphonic Acid Hydrobromide Salt]
[1]
  Inhibition (%), Glutamate, NMDA, Phencyclidine: -4%
Thyroid Hormone
  Inhibition (%), Thyroid Hormone: 7%
[2]
  inhibition at 10 µM: -6%
Muscarinic M3
  inhibition at 10 µM: 0%
Phorbol Ester
  Inhibition (%), Phorbol Ester: -3%
Neuropeptide Y Y2
  inhibition at 10 µM: 10%
[3]; Table 1, A: neurite outgrowth (% of control) of test compound 1000 nM + paclitaxel 50 nM, B: paclitaxel 50 nM alone, DRG neurons, read-out: Neuroprotection rate = (A-B)±S.E.M [%]
  activation at 1 µM: 21%
[3]; Table S2, test compound 1000 nM + paclitaxel 50 nM minus paclitaxel 50 nM, read-out: Neuroprotection rate = (A-B) ± S.E.M [%]
  activation at 1 µM: 21 ± 0.77%
[3]; supplementary CSV, test compound 1000 nM, read-out: A-B (A: neurite outgrowth (% of control) of test compound (1000 nM) + paclitaxel (50 nM), B: of paclitaxel (50 nM))
  activation at 1 µM: 21%
[3]; neurite outgrowth assay
  in vitro effective concentration: 10 nM
[3]; pretreated, + 50 nM paclitaxel, DRG neurons
  protective efficacy against paclitaxel-induced neurotoxicity (in words): exhibited protective efficacy
[3]; pretreated, + 50 nM paclitaxel, Figure 3B
  increase of neurite length compared to the positive control (paclitaxel-treated alone): 24–28%
[4]; CN016 5 mg/kg IP 1 h prior to paclitaxel 4.5 mg/kg
  alleviation of thermal insensitivity (tail immersion): only moderately alleviated
[4]; CN016 10 or 20 mg/kg IP 1 h prior to paclitaxel 4.5 mg/kg, days 1, 3, 5, 7
  alleviation of paclitaxel-induced thermhypesthesia (tail immersion): able to alleviate
Muscarinic M1
  inhibition at 10 µM: 5%
[5]; CN016 10 or 20 mg/kg before paclitaxel
  infiltration of M1 and M2 macrophages in DRG tissues: significantly diminished
[5]; CN016 low dosage
  paclitaxel-induced M1 and M2 macrophages recruitment: failed to inhibit
[5]
  paclitaxel-induced activation of M1 microglia in DRG neurons: dramatically reduce
[6]
  inhibition at 10 µM: 7%
